Active and inactive are the calls of the source. The rule behind the calls is not given here.
Columns and labels:
Cavia porcellus [1] = species: Cavia porcellus; assay: Displacement of [3H]Cl-DPDPE from DOR in guinea pig vas deferens
Cavia porcellus [2] = species: Cavia porcellus; assay: Partial agonist activity at KOR in guinea pig ileum assessed as inhibition of electrically-stimulated twitch in presence of norBNI
Rhesus monkey = assay: Reduction in morphine dependence in nonwithdrawn rhesus monkey model assessed as attenuation of naloxone-induced naloxone-precipitated withdrawal effect at 2 mg/kg; details: Macaca mulatta
Cavia porcellus [3] = species: Cavia porcellus; assay: Irreversible partial agonist activity at KOR in guinea pig ileum assessed as inhibition of electrically-stimulated twitch

Row | SMILES | Ke (Cavia porcellus [1]) | also measured
1 | COC(=O)CCC(=O)N[C@@]12CCC(=O)[C@@H]3Oc4c(O)ccc5c4[C@@]31CCN(CC1CC1)[C@@H]2C5 | 3.89 nM | –
2 | COC(=O)/C=C/C(=O)O[C@@]12CCC(=O)[C@@H]3Oc4c(O)ccc5c4[C@@]31CCN(CC1CC1)[C@@H]2C5 | 6.84 nM | inhibition (Cavia porcellus [2]): inactive
3 | COC(=O)/C=C/C(=O)N[C@H]1C[C@@]23CC[C@]1(OC)[C@@H]1Oc4c(O)ccc5c4[C@@]12CCN(CC1CC1)[C@@H]3C5 | 6.2 nM | –
4 | CO[C@]12CC[C@@]3(C[C@@H]1CNC(=O)/C=C/c1ccccc1)[C@H]1Cc4ccc(O)c5c4[C@@]3(CCN1CC1CC1)[C@H]2O5 | 0.044 nM | –
5 | COC(=O)/C=C/C(=O)N[C@@]12CCC(=O)[C@@H]3Oc4c(O)ccc5c4[C@@]31CCN(CC1CC1)[C@@H]2C5 | – | Activity (Rhesus monkey): inactive
6 | CO[C@]12CC[C@@]3(C[C@@H]1NC(=O)/C=C/c1ccccc1)[C@H]1Cc4ccc(O)c5c4[C@@]3(CCN1CC1CC1)[C@H]2O5 | 0.94 nM | –
7 | COC(=O)/C=C/C(=O)NC[C@H]1C[C@@]23CC[C@]1(OC)[C@@H]1Oc4c(O)ccc5c4[C@@]12CCN(CC1CC1)[C@@H]3C5 | 1.25 nM | inhibition (Cavia porcellus [2]): Active; inhibition (Cavia porcellus [3]): Active
8 | O=C(/C=C/c1ccccc1)O[C@@]12CCC(=O)[C@@H]3Oc4c(O)ccc5c4[C@@]31CCN(CC1CC1)[C@@H]2C5 | 0.25 nM | –
